In PubChem BioAssay AID720596 (The Scripps Research Institute Molecular Screening Center, 2013):
This is a selection; strong and weak results do not stand in their true shares. Active and inactive are the calls of the source. No stated cut-off is given here; in the data, active means inhibition above about 24%; inactive means the rest.

The compounds below were run against Major prion protein (Homo sapiens) (UniProt P04156) (assay: reduces human prion protein on the cell surface, primary screen, cell-based, TR-FRET (AID 720596; further: 0% = median of the test wells and 100% = reference compound wells)). Details: cell surface PrPC, TR-FRET read-out; at 13.8 µM; stronger effect = higher value.
`CCC(=O)N(c1ccccc1)C1(COC)CCN(CCc2cccs2)CC1` was tested, and the inhibition was inactive: -7.41%. For `CCC(=O)N(c1ccccc1)C1(COC)CCN(CCn2nnn(CC)c2=O)CC1`, the inhibition was inactive: 0.83%.
